Experimental data: patent US20100069254A1, “Cell Culture Model for Demyelination/Remyelination” (priority 2008, published 2010)

Test system: myelinated axons in neuronal cell cultures differentiated from ES-D3 cells
Conditions: up to two weeks of growth in normal culture medium after demyelination by hexachlorophene
From the text: Monitoring of metabolic activity (CellTiter 96® AQueous One; Promega) is used to identify concentrations that caused a minimum amount of damage to the oligodendrocytes and neurons. In this assay a tetrazolium compound (MTS) and an electron coupling reagent (phenazine ethosulfate) are used for calorimetric detection of metabolic activity. MTS is bioreduced, presumably by NADPH or NADH, into a colored formazan product that is soluble in tissue culture medium and can be detected spectrophotometrically. Absorbance at about […] is proportional to metabolic activity and is commonly used to monitor the number of living cells in culture.

Oc1c(Cl)cc(Cl)c(Cl)c1Cc1c(O)c(Cl)cc(Cl)c1Cl [hexachlorophene]
spontaneous remyelination (transmission electron microscopy): No significant spontaneous remyelination was observed
